# Results from PubChem BioAssay AID686964 (The Scripps Research Institute Molecular Screening Center, 2013).
# Protein sequences, listed by entry. Tags and fused reporters are not part of them.
# UniProt Q9UBB5, whole entry: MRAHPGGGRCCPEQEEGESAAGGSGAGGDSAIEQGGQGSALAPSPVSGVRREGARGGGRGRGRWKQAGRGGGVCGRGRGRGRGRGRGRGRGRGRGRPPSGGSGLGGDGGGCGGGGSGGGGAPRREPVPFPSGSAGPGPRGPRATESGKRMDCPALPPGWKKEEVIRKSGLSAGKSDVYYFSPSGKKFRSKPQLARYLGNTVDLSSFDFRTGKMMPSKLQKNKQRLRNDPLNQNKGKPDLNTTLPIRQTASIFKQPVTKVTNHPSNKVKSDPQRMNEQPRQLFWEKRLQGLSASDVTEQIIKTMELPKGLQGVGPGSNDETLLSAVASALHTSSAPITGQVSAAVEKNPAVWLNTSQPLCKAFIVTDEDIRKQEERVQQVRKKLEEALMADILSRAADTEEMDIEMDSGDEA
# This is a selection; strong and weak results do not stand in their true shares. Some of these compounds have results that are not shown, active ones among them. The source made the active and inactive calls. No stated cut-off is given here; in the data, active means inhibition above about 13%; inactive means the rest.
# Target: Methyl-CpG-binding domain protein 2 (Homo sapiens) (UniProt Q9UBB5)
# Assay: inhibitors of MBD2 binding to methylated DNA, primary screen, biochemical, TR-FRET, DNA-binding domain, human (AID 686964)
# Settings: MBD2 binding to methylated oligonucleotide, at 4.4 µM, active compounds read high
row,SMILES,inhibition
1,COc1ccc(Cl)cc1C(=O)NCC1(N(C)C)CCCCC1,inactive: 2.33%
2,COc1cccc(C(=O)NCC2(N3CCCCC3)CCCCC2)c1,inactive: -0.85%
3,O=C(NCC1(N2CCCCC2)CCCCC1)c1cccc(Cl)c1,inactive: -0.43%
4,CN(C)C1(CNC(=O)c2ccc(Br)cc2)CCCCC1,inactive: 0.83%
5,COc1cc(C(=O)NCC2(N(C)C)CCCCC2)c([N+](=O)[O-])cc1OC,inactive: -1.16%
6,COc1ccc(Br)c(C(=O)NCC2(N3CCCCC3)CCCCC2)c1,inactive: 4.76%
7,C=C(C)C#CC(O)(C(=O)OC1CCN(C)CC1)c1ccccc1 (stereo unspecified),inactive: 6.03%
8,CN(C)c1cccc(C(=O)NCC2(N(C)C)CCCCC2)c1,inactive: -3.05%
9,O=C(OCCN1CCCC1)C(O)(c1ccccc1)c1ccccc1,inactive: 0.91%
10,CC(C)Oc1ccc(C(=O)NCC2(N(C)C)CCCCC2)cc1,inactive: 2.9%
11,O=C(OC1CN2CCC1CC2)C(CO)(c1ccccc1)c1ccccc1 (stereo unspecified),inactive: -5.34%
12,CC(C)N1C(=O)CC2(CCN(CCOC(=O)C(O)(c3ccccc3)c3ccccc3)CC2)C1=O,inactive: 2.78%
13,COc1cc(SC)ccc1C(=O)NCC1(N(C)C)CCCCC1,inactive: 1.69%
14,CCN(CC)CC(C)C(C)OC(=O)C(O)(c1ccccc1)c1ccccc1 (stereo unspecified),inactive: 3.2%
15,Cc1ccc(C(=O)NCC2(N3CCCCC3)CCCCC2)cc1,inactive: 3.82%
16,O=C(NCC1(N2CCCCC2)CCCCC1)c1cc([N+](=O)[O-])ccc1Cl,inactive: -0.21%
17,CN1[C@@H]2CC[C@H]1CC(OC(=O)C(O)(c1ccccc1)c1ccccc1)C2 (stereo partly specified),inactive: 1.85%
18,O=C(NCC1(N2CCCCC2)CCCCC1)c1cc(F)c(F)cc1Cl,inactive: 0.36%
19,C=CCN1CCN(CCOC(=O)C(O)(c2ccccc2)c2ccccc2)CC1,inactive: -5.4%
20,O=C(NCC1(N2CCCCC2)CCCCC1)c1cccc(Br)c1,inactive: 3.86%
21,Cc1cc(C(=O)NCC2(N3CCCCC3)CCCCC2)ccc1[N+](=O)[O-],inactive: 0.94%
22,CCN1CCCC(OC(=O)C2(O)c3ccccc3C=Cc3ccccc32)C1 (stereo unspecified),inactive: 0.38%
23,COc1ccc(C(=O)NCC2(N(C)C)CCCCC2)cc1,inactive: -2.96%
24,CN(C)C1CCCC1OC(=O)C(O)(c1ccccc1)c1ccccc1 (stereo unspecified),inactive: 3.43%
25,CN(C)c1ccc(C(=O)NCC2(N(C)C)CCCCC2)cc1,inactive: 4.9%
26,Cc1ccccc1C(=O)NCC1(N2CCCCC2)CCCCC1,inactive: -1.94%
